Sa growth 42C: S. aureus growth inhibition at 42 and 30 °C, primary screen, LtaS inhibitor project, RN4220, two temperatures; OD600, 20 h, 42 °C; stronger effect = lower value; 0.53% of 170,000 active; relative growth, % (concentration not given with the values);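 active means relative growth at most 50% at the other temperature and 20+ points below 30 °C, or under 10% at both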
GIV Gai3 FP: inhibitors of GIV GBA-motif binding to rat Galpha-i3; P08753; Galpha-i3/FITC-GIV peptide fluorescence polarization, 90 min; active compounds read low; scaled: aluminum fluoride 0%, vehicle 100%; percent of control (FP), % (concentration not given with the values); 210,000 compounds, 0.42% hits; AID 1224905;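 active means replicate mean at 85% of control or lower, very high polarization wells dropped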;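 further: wells of about 15 µL received 100 nL stock; the first replicate is given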
HCMV UL50-53 inh: inhibitors of HCMV UL50-UL53 interaction, biochemical, HTRF; inhibition, % (no concentration beside the values); normalized percent inhibition; 0.15% of 190,000 active; AID 1918969, 2023; HCMV UL50-UL53 nuclear egress complex (human cytomegalovirus); in the data active means inhibition above about 27%, passing the limit was not always enough
Numbers without * were called inactive. Sampled rows, rich in hits. Any-hit rate of the full collection: about 0.7%.

What do the screens show for `COc1cccc(/C=N/NC(=O)c2oc3nc(-c4ccccc4)cc(-c4ccco4)c3c2N)c1`?
Sa growth 42C: 107; GIV Gai3 FP: -54*; HCMV UL50-53 inh: -32

Results for O=C(CCCN1C(=O)C(c2ccccc2)Oc2cccnc21)NCc1cccc(Cl)c1 (stereo not drawn) ?
GIV Gai3 FP: 100; HCMV UL50-53 inh: 27

What do the screens show for `Cc1ccc(NC(=O)Cn2cnc3sc(C(=O)N4CCC(C)CC4)c(C)c3c2=O)cc1Cl`?
Sa growth 42C: 103; HCMV UL50-53 inh: -2

What do the screens show for `N#CSc1sc(N)nc1-c1ccccc1`?
Sa growth 42C: 0.1*; GIV Gai3 FP: 107; HCMV UL50-53 inh: 0

How did COc1ccc(-c2nc(N)sc2-c2ccccc2)cc1 do in these assays?
HCMV UL50-53 inh: -19

What do the screens show for `CN(CC(=O)O)Cc1cccnc1`?
Sa growth 42C: 98; GIV Gai3 FP: 103; HCMV UL50-53 inh: -13

Results for COC(=O)C1=C(C)Nc2nnnn2C1c1ccc([N+](=O)[O-])cc1 (stereo not drawn) ?
GIV Gai3 FP: 101; HCMV UL50-53 inh: -68

How did Cc1ccc(C(=O)Oc2ccc(C3Oc4ccccc4C4CC(c5ccc(Cl)cc5)=NN43)cc2)cc1 (stereo not drawn) do in these assays?
GIV Gai3 FP: 102; HCMV UL50-53 inh: -28

What do the screens show for `COc1ccc(-c2cc(C(=O)N3CCN(c4ccccc4OC)CC3)c3ccccc3n2)cc1`?
GIV Gai3 FP: 107; HCMV UL50-53 inh: 9

What do the screens show for `COc1ccccc1N1CCN(Cc2cccc3ccccc23)CC1`?
Sa growth 42C: 91; GIV Gai3 FP: 102; HCMV UL50-53 inh: -16

How did COc1cc(OC)c(OC)cc1CN1CCN(c2cccc(C)c2C)CC1 do in these assays?
Sa growth 42C: 107; GIV Gai3 FP: 98; HCMV UL50-53 inh: 73*

What do the screens show for `Cc1cc(C)c2c(=O)cc(CSCC(=O)Nc3nnc(C)s3)[nH]c2c1`?
Sa growth 42C: -0.5*; GIV Gai3 FP: 107

Results for Cc1ccc2c(=O)cc(CSCC(=O)Nc3nnc(C)s3)[nH]c2c1 ?
Sa growth 42C: 95; GIV Gai3 FP: 105

Results for O=C(O)CCCc1nc2ccccc2s1 ?
Sa growth 42C: 97; GIV Gai3 FP: 101; HCMV UL50-53 inh: -40

Results for O=C(O)Cc1nc2ccccc2s1 ?
Sa growth 42C: -0.3*; HCMV UL50-53 inh: -10

What do the screens show for `O=C(NCc1ccc(Br)cc1)c1cccc(-c2cc(N3CCCC3)ncn2)c1`?
GIV Gai3 FP: 105

What do the screens show for `O=C1C=C(C(F)(F)F)c2ccc(NC3CCCCC3)c3cccc1c23`?
Sa growth 42C: 108; GIV Gai3 FP: -84*

Results for O=C1c2ccccc2C(=O)c2c(NC3CCCCC3)ccc(Nc3ccc(Oc4ccccc4)cc3)c21 ?
GIV Gai3 FP: 104; HCMV UL50-53 inh: -6

What do the screens show for `Cc1ccc(/C=C2\CCCC3=C2Nc2nnnn2C3c2ccc(C)cc2)cc1` (stereo not drawn)?
Sa growth 42C: 0.7*; GIV Gai3 FP: 98

Results for C(=C1\CCCC2=C1Nc1nnnn1C2c1ccccc1)/c1ccccc1 (stereo not drawn) ?
GIV Gai3 FP: 96; HCMV UL50-53 inh: -16

Sorted by formula weight (descending): part of the list above.
Results for O=C1c2ccccc2C(=O)c2c(NC3CCCCC3)ccc(Nc3ccc(Oc4ccccc4)cc3)c21 ?
GIV Gai3 FP: 104; HCMV UL50-53 inh: -6

What do the screens show for `Cc1cc(C)c2c(=O)cc(CSCC(=O)Nc3nnc(C)s3)[nH]c2c1`?
Sa growth 42C: -0.5*; GIV Gai3 FP: 107

What do the screens show for `O=C1C=C(C(F)(F)F)c2ccc(NC3CCCCC3)c3cccc1c23`?
Sa growth 42C: 108; GIV Gai3 FP: -84*

Remaining list, next part.
Results for Cc1noc(C)c1S(=O)(=O)N1CCCn2nc(-c3cccs3)cc2C1 ?
GIV Gai3 FP: 103

Results for Cc1ccc(-c2nc3cc(C(F)(F)F)cc(Cl)c3nc2-c2ccc(C)cc2)cc1 ?
GIV Gai3 FP: 103

What do the screens show for `CCC1OC(=O)C(C)C(OC2C[C@@](C)(OC)C(O)C(C)O2)C(C)C(OC2OC(C)CC(N(C)C)C2O)[C@](C)(OC)CC(C)C(=O)C(C)C(O)[C@]1(C)O` (stereo partly drawn)?
HCMV UL50-53 inh: -5

Results for CC[C@H]1OC(=O)[C@H](C)[C@@H](O[C@H]2C[C@@](C)(OC)[C@@H](O)[C@H](C)O2)[C@H](C)[C@@H](O[C@@H]2O[C@H](C)C[C@H](N(C)C)[C@H]2O)[C@](C)(OC)C[C@@H](C)C(=O)[C@H](C)[C@@H](O)[C@]1(C)O ?
Sa growth 42C: -0.8*; GIV Gai3 FP: 106; HCMV UL50-53 inh: -23

What do the screens show for `COc1ccc(Nc2nc(-c3cc4cc(Br)ccc4oc3=O)cs2)c(OC)c1`?
GIV Gai3 FP: 98

What do the screens show for `CC(C)(C)c1cc(C(=O)OCCN2CCCCC2)cc(C(C)(C)C)c1`?
Sa growth 42C: 22*; GIV Gai3 FP: 100

What do the screens show for `Cc1ccc(C(=O)OCCN2CCCCC2)cc1`?
Sa growth 42C: 90; GIV Gai3 FP: 106; HCMV UL50-53 inh: -24

Results for O=C(Nc1ccc(Cl)c(Cl)c1)Oc1ccc(NC(=O)c2ccco2)cc1 ?
Sa growth 42C: 3.7*; HCMV UL50-53 inh: -14
